# Measurements as given in US6589992B2, “Inhibiting collagen-induced platelet aggregation” (Parker Hughes Institute, priority 1999, dated 2003).
# Key:
# [1] = Pharmacokinetics in mice (HPLC plasma levels); conditions: single i.v. bolus 25 mg/kg or i.p. bolus 50 mg/kg
# Protocol: All collected blood samples were heparinized and centrifuged at 7,000xg for 5 minutes in a microcentrifuge to obtain plasma. The plasma samples were stored at −20° C. until analysis.
# The analytical column was equilibrated and eluted under isocratic conditions utilizing a flow rate of 1.0 mL/min at ambient temperature. The wavelength of detection was set at 294 nm. Peak width, response time, and slit were set at >0.03 min, 0.55 sec, and […], respectively. […] Following centrifugation at 300xg for 5 minutes, the supernatant was used for HPLC analysis using a system comprised of a Hewlett Packard (HP) series 1100 instrument equipped with an automated electronic degasser, a quaternary pump, an autosampler, an automatic thermostatic column compartment, diode array detector and a computer with a Chemstation software program for data analysis (Chen and Uckun, 1999; Malaviya et al., 2000). All extraction procedures were carried out at room temperature.
# The unweighed linear regression analysis of the standard curves was performed by using the CA-Cricket Graph III computer program, Version 1.0 (Computer Association, Inc., Islandia, N.Y.). […] Pharmacokinetic modeling and pharmacokinetic parameter estimations were carried out using the pharmacokinetics software, WinNonlin Program, Professional version 3.0 (Pharsight Inc., Mountain view, Calif.) (Chen and Uckun, 1999; Malaviya et al. 2000; Uckun et al., 1999).
# The elimination half-life was estimated by linear regression analysis of the terminal phase of the plasma concentration time profile. The area under the concentration time curve (AUC) was calculated by the linear trapezoidal rule between the first (0 hours) and last sampling time plus C/k, where C is the concentration at the last sampling time and k is the elimination rate constant. The systemic clearance (CL) was determined by dividing the does by the AUC (Chen and Uckun, 199; Malaviya et al., 2000; Uckun et al., 1999).
# A one-compartment, first order pharmacokinetic model was fit into the pharmacokinetic data. […]
# mice = assay: Toxicity of LFM-A13 in mice; conditions: mouse, in vivo
# Description: For histopathologic studies, tissues were fixed in 10% neutral buffered formalin, dehydrated, and embedded in paraffin by routine methods.
smiles,measurement,setting,value
"C/C(O)=C(\C#N)C(=O)Nc1cc(Br)ccc1Br [LFM-A13, α-cyano-β-hydroxy-β-methyl-N-(2,5-dibromophenyl)-propenamide]",plasma concentration achieved,[1],> 10 µM
same,time plasma concentration >10 μM maintained,[1],> 2 h
same,time to achieve plasma concentration >10 μM,[1],≤ 3 min
same,"toxicity, systemic administration",mice,not toxic
